{"source": "paper PMC6344423", "about": "“Opposing Actions of Adrenocorticotropic Hormone and Glucocorticoids on UCP1-Mediated Respiration in Brown Adipocytes” (Frontiers in Physiology, 2019)", "system": "Ucp1 gene expression in primary brown adipocytes of Ucp1^ki/ki mice", "assay": "Luciferase assay, FLUC activity as surrogate for Ucp1 expression", "assay_type": "cell-based, mouse", "conditions": "overnight stimulation, normalized to total protein content, n = 3, Figure 1D", "protocol": "After overnight stimulation of primary brown adipocytes of Ucp1^ki/ki mice luciferase activity was assayed using a commercial kit system (Luciferase Assay System Freezer Pack E4030, Promega GmbH). Primary cells were lysed in 1x reporter lysis buffer by shaking for 20 min at room temperature. 10 μl lysate was mixed with 50 μl luciferase assay substrate solution, and the mixture was measured by FB12 in a luminometer (Single Tube Luminometer, Titertek-Berthold GmbH). Bioluminescence readouts were normalized to total protein content.\nWe then measured FLUC activity in primary brown adipocytes from Ucp1^ki/ki reporter gene mice to determine the effect of the GsPCR ligands on Ucp1 gene expression in response to overnight stimulation. As the expression of Fluc in these cells is driven by Ucp1promoter, FLUC activity served as a surrogate for Ucp1 expression. […] Based on the pronounced and relatively preferential stimulatory effect of ACTH on UCP1-mediated respiration we chose the ACTH to further investigate its thermogenic properties."}
{"substance": "CGRP: calcitonin gene-related peptide, ligand for CALCRL", "values": [{"measurement": "FLUC (luciferase) activity as surrogate for Ucp1 expression", "result": "only had minor effects"}]}
